## AlphaSeq binding of Ab-14 heavy chain variants to a spike HR2 peptide

The measurements come from Engelhart et al. 2022 (doi:10.1038/s41597-022-01779-4) through the FLAb antibody collection.

Antigen: PDVDLGDISGINAS, a 14-residue peptide of the SARS-CoV-2 spike HR2 region.

The variants keep the light chain, the linker and the frameworks of Ab-14 (scFv order VH, a 15-residue (Gly4Ser)3 linker, VL).
VH: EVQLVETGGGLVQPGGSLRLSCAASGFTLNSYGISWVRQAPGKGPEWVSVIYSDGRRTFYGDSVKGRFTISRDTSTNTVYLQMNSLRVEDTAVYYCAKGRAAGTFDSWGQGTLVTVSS
VL: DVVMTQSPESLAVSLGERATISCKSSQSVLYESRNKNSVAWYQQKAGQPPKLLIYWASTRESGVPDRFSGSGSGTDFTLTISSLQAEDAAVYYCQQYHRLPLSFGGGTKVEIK

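The parent was found by panning a naive human phage display library on the peptide. In library AAYL49, one, two or three CDR residues were substituted; doubles and triples were drawn at random. The scFvs were displayed on barcoded MATa yeast, the peptide on MATalpha yeast. The frequency of each diploid, read from paired DNA barcodes, reflects how well the two displayed proteins bind. Each replicate has its own calibration line, from reference interactions of the BCL2 family. There are three technical replicates.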

Substitutions are numbered in sequence along the VH above, starting at 1 (not Kabat).
This list gathers variants with a substitution at T104 (VH, numbered from residue 1).
Kd is apparent (estimated from mating counts) and averaged on the log scale over replicates with a signal. Smaller is tighter.
A pair that was not seen in any replicate is written "nd"; this usually means weak binding, but a binder can also be missed.
Parent in this assay: reference entry 4.4 nM, copy in this library 13 µM (one replicate of three).
Nonspecific signal, from three strains lacking the peptide, appeared in 15% of pairings of library AAYL49, centred on 11 µM (5% of these signals below 680 nM); values are not corrected for it.

With F59M+T104P the result was 13 µM (1 of 3 replicates).
With T58R+G61M+T104G the result was nd (0 of 3 replicates).
With G61V+T104S+F105V the result was 9.6 µM (2 of 3 replicates).
With N30P+T104D the result was nd (0 of 3 replicates).
With R56F+R100W+T104G the result was nd (0 of 3 replicates).
With T28F+I51H+T104N the result was nd (0 of 3 replicates).
With F27G+G55E+T104V the result was nd (0 of 3 replicates).
With L29R+N30D+T104Q the result was nd (0 of 3 replicates).
With S53Q+D62I+T104C the result was nd (0 of 3 replicates).
With G103W+T104Y the result was nd (0 of 3 replicates).
With Y60W+T104R the result was nd (0 of 3 replicates).
With I51K+T58H+T104N the result was nd (0 of 3 replicates).
With G26I+S35A+T104Y the result was nd (0 of 3 replicates).
With T28Y+Y52T+T104Q the result was nd (0 of 3 replicates).
With I51G+G99A+T104Y the result was nd (0 of 3 replicates).
With L29N+T104P the result was 3.7 µM (1 of 3 replicates).
With F59V+T104W+S107D the result was 6.4 µM (1 of 3 replicates).
With V64A+T104F+F105M the result was 19 nM (3 of 3 replicates).
With G99L+T104C the result was 29 nM (3 of 3 replicates).
With G26W+R56F+T104W the result was nd (0 of 3 replicates).
With R100Y+T104G the result was 14 µM (1 of 3 replicates).
With G103D+T104A the result was 15 µM (3 of 3 replicates).
With R57P+A101W+T104Y the result was nd (0 of 3 replicates).
With D54A+V64N+T104N the result was nd (0 of 3 replicates).
With G55A+V64G+T104Y the result was 4.1 µM (1 of 3 replicates).
With L29V+Y52V+T104W the result was nd (0 of 3 replicates).
With T28I+S63E+T104P the result was nd (0 of 3 replicates).
With L29K+G55A+T104S the result was 250 nM (1 of 3 replicates).
With V50H+R56N+T104F the result was nd (0 of 3 replicates).
With T104S+D106Q the result was 2.0 µM (2 of 3 replicates).
With K65C+G103H+T104A the result was 28 µM (1 of 3 replicates).
With G33Q+R100S+T104Y the result was 4.2 µM (1 of 3 replicates).
With I34D+K65I+T104L the result was nd (0 of 3 replicates).
With L29A+S53M+T104A the result was nd (0 of 3 replicates).
With Y32N+G33S+T104N the result was 13 µM (2 of 3 replicates).
With T28Y+L29K+T104Q the result was 2.0 µM (1 of 3 replicates).
With V64C+G99W+T104V the result was 88 nM (2 of 3 replicates).
With G55Q+Y60F+T104R the result was 60 µM (2 of 3 replicates).
With Y32P+T104Y+D106C the result was 98 µM (1 of 3 replicates).
With T28P+Y52S+T104F the result was 10 µM (2 of 3 replicates).
With L29F+R57Q+T104W the result was nd (0 of 3 replicates).
With D54R+D62P+T104G the result was 76 µM (3 of 3 replicates).
With I51E+Y52K+T104D the result was 28 µM (3 of 3 replicates).
With N30E+V64C+T104D the result was 540 nM (3 of 3 replicates).
With S63F+T104W the result was 14 nM (3 of 3 replicates).
With G55N+R57S+T104P the result was 43 µM (2 of 3 replicates).
With T104S+F105W the result was 820 nM (2 of 3 replicates).

5 of these entries, quoted again:

changes,Kd,detected
T58R+G61M+T104G,nd,0 of 3
G26W+R56F+T104W,nd,0 of 3
D54A+V64N+T104N,nd,0 of 3
F59M+T104P,13 µM,1 of 3
G33Q+R100S+T104Y,4.2 µM,1 of 3